Earlier results on 1 substance are cited in article PMC13399020.

Amino acid sequences for entries named in this document (tags omitted). A change or cut given only in a name is not applied to a line headed by its entry.
UniProt P07101: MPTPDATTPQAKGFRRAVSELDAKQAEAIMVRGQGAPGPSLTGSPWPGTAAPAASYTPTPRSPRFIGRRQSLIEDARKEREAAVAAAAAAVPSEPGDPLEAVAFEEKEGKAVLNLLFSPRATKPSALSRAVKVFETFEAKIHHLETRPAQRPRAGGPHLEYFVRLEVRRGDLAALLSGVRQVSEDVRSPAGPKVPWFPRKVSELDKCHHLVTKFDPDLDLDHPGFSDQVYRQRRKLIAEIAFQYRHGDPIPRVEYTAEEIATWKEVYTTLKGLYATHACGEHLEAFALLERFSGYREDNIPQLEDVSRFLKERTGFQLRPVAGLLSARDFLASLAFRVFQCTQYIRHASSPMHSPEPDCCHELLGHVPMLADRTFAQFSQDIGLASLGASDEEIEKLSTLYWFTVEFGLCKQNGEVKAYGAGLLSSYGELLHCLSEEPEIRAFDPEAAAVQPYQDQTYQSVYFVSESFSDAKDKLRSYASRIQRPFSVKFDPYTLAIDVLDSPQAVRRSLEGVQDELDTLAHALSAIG
UniProt Q9UKB3: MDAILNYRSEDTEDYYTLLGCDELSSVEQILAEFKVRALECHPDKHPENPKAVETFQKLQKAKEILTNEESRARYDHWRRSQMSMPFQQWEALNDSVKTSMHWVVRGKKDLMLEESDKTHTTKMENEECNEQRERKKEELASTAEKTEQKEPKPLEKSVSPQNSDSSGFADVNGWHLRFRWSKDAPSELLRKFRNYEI

In general, Kd refers to a measure of binding affinity in units of concentration.

This data set concerns the target Tyrosine hydroxylase (Homo sapiens) (UniProt P07101).

As for DNAJC12 (from UniProt Q9UKB3), the Kd is 148 nM.
